# Data from patent US6998422B2, “Lipid peroxide-lowering compositions” (Sankyo Company, Limited, priority 2000, dated 2006).
# Tested on: blood lipid peroxides
# Assay: Blood lipid peroxide levels in serum of beagle dogs after oral dosing for 11 days (Yagi's method, fluorometer)
# Conditions: relative ratio against averaged pre-dosing level (100), oral capsule once daily, pravastatin 2 mg/kg, pantethine 300 mg/kg, mean of 5 dogs
compound,measurement,setting,value
"CC(C)(CO)[C@@H](O)C(=O)NCCC(=O)NCCSSCCNC(=O)CCNC(=O)[C@H](O)C(C)(C)CO [Pantethine alone, Pantethine]","Blood Lipid Peroxide Levels after administration, 4 days",4 days,82.5
same,"Blood Lipid Peroxide Levels after administration, 8 days",8 days,105.0
